Data on one compound can be found in US9586965B2, “Pyrrolo[2,3-d]pyrimidine compounds as inhibitors of protein kinases” (ACEA BIOSCIENCES INC., priority 2012, dated 2017).

The subject of data set [1] is HCC827 (L858R) human lung adenocarcinoma xenograft. The settings on record: in vivo. Here is the method:
(§1) Each mouse was inoculated subcutaneously at the right flank with H1975 cells (5×10^6), HCC827 (5×10^6) and A431 (5×10^6) respectively in 0.2 ml of medium for tumor development. The treatments were started when the tumor size reached approximately 200-250 mm^3. The testing articles were administrated to the mice according to the predetermined regimen as shown in the experimental design table.
(§2) All the procedures related to animal handling, care and the treatment in this study were performed according to the guidelines approved by the Institutional Animal Care and Use Committee (IACUC) following the guidance of the Association for Assessment and Accreditation of Laboratory Animal Care (AAALAC). At the time of routine monitoring, the animals were checked for any effects of tumor growth and treatments on normal behavior such as mobility, food and water consumption (by observation), body weight gain/loss (body weights were measured twice weekly), eye/hair matting and any other abnormal effect. Death and observed clinical signs were recorded on the basis of the numbers of animals within each subset.
(§3) The major endpoint was to see if the tumor growth can be delayed or mice can be cured. […] Tumor weight was measured at the study termination. The T/C value (in percent) was calculated where T and C were the mean tumor weights of the treated and control groups, respectively.

Data set [2] deals with NCI-H1975 (L858R/T790M) human non-small cell lung adenocarcinoma xenograft. Conditions: in vivo. Here is the method:
as §1, §2, §3

With `COc1cc2ncnc(Nc3ccc(F)c(Cl)c3)c2cc1OCCCN1CCOCC1` [Gefitinib], in data set [1], the “Mouse Weight (g) at day 25(14)” value worked out at 23.70 ± 0.43 g. The “Mouse Weight (g) at day 23(14)” value in data set [2] was 20.43 ± 0.71 g.
